System: 22Rv1 tumor-bearing mice
Experiment: Biodistribution in 22Rv1 tumor-bearing mice
Details: 0.74 MBq, n = 3; for Uptake Heart, Mean: 30 min p.i.
Experimental: The animal studies were approved by the institutional animal care and use committee of the Chinese PLA General Hospital. Healthy male ICR mice were injected with either a novel radiotracer (37 MBq in 150 μL) or saline (150 μL) for the radiotoxicity evaluation. […] Biodistribution and micro-PET studies were performed on 22Rv1 and PC-3 xenograft models, and 2-PMPA was used as the PSMA blocker (all details are shown in the Supplementary Materials).
BALB/c nude mice (male, 4-6 weeks) were inoculated subcutaneously with […]
100 mm3, the mice underwent biodistribution study and Micro-PET imaging.
The 22Rv1 tumor-bearing mice were injected with each novel radiotracer or […]
[…] Mice were sacrificed at different time points p.i. (10 min, 30 min, 60 min), tumors and interested organs were harvested, weighed and measured by a γ-counter, the results were expressed as the percentage of injected dose per gram (ID%/g).
Table S1. Uptake values for ex vivo tissues of [ 68Ga]Ga-PSMA-Q (0.74 MBq/mice) in 22Rv1 tumor-bearing mice (10, 30 and 60 min p.i., n = 3/time point).

Compound	Uptake Heart, Mean	other results
O=C([O-])CN1CCN(CC(=O)[O-])CCN(CC(=O)NCC2CCC(C(=O)NC(Cc3ccncc3)C(=O)NCCCCC(NC(=O)NC(CCC(=O)O)C(=O)O)C(=O)O)CC2)CCN(CC(=O)O)CC1.[68Ga+3] (stereo not shown) [[^68Ga]Ga-PSMA-4PY]	–	Uptake Kidney, Mean (60 min p.i.): 1.85 ID%/g
O=C([O-])CN(CCN(CC(=O)[O-])Cc1cc(CCC(=O)NCCCCCC(=O)NCCCC[C@H](NC(=O)N[C@@H](CCC(=O)O)C(=O)O)C(=O)O)ccc1[O-])Cc1cc(CCC(=O)O)ccc1[O-].[68Ga+3].[OH3+] [[^68Ga]Ga-PSMA-11, reference compound]	1.01 ID%/g	–
O=C([O-])CN1CCN(CC(=O)[O-])CCN(CC(=O)NCCCCC(=O)NC(Cc2cnc3ccccc3c2)C(=O)NCCCCC(NC(=O)NC(CCC(=O)O)C(=O)O)C(=O)O)CCN(CC(=O)O)CC1.[68Ga+3] (stereo not shown) [[^68Ga]Ga-PSMA-Q-1]	1.01 ID%/g	–
O=C([O-])CN1CCN(CC(=O)[O-])CCN(CC(=O)NCc2ccc(C(=O)NC(Cc3cnc4ccccc4c3)C(=O)NCCCCC(NC(=O)NC(CCC(=O)O)C(=O)O)C(=O)O)cc2)CCN(CC(=O)O)CC1.[68Ga+3] (stereo not shown) [[^68Ga]Ga-PSMA-Q-3]	–	Uptake Liver, Mean (60 min p.i.): 1.01 ID%/g

— article PMC9414910, “Optimized ^68Ga-Labeled Urea-Based PSMA-Targeted PET Tracers for Prostate Cancer” (Pharmaceuticals, 2022)
